# Measured values: EP0476120B1, “PROCESS FOR PREPARING EQUIMOLAR SALTS OF ASPARTIC ACID AND MAGNESIUM, MAGNESIUM ASPARTATE SALT OBTAINED BY SAID PROCESS AND ITS APPLICATIONS” (LA[…] SPINDLER, priority 1990, dated 1991)
# How the values were obtained:
# [1] = in 100 ml water at 20 °C
substance,measurement,setting,value
α-β-aspartate de magnésium,DL 50,"souris; intragastric, female mouse","~6,6 g.kg⁻¹"
same,DL 50,"souris; intragastric, male mouse","~7,1 g.kg⁻¹"
same,DL 50,"souris; intravenous, female mouse","~230,5 mg.kg⁻¹"
same,DL 50,"souris; intravenous, male mouse","~238,4 mg.kg⁻¹"
same,solubles dans 100 ml d'eau,[1],20 g
same,pH,in solution,"9,8"
same,stabilité en solution,"in solution, room temperature",stable
same,hygroscopicité,solid product,hygroscopique

# Like-named read-outs stand apart in the source and are kept apart here.
